Reference: publication PMC7531517 (mAbs, 2020)
Where a chain is given by its changes, count along the chain named.

B1: mAb2 (wild type therapeutic monoclonal antibody against VEGF) (antibody, V domains shown)
VH: EVQLVESGGGLVQPGGSLRLSCAASGFTISDYWIHWVRQAPGKGLEWVAGITPAGGYTYYADSVKGRFTISADTSKNTAYLQMNSLRAEDTAVYYCARFVFFLPYAMDYWGQGTLVTVSS
VL: DIQMTQSPSSLSASVGDRVTITCRASQDVSTAVAWYQQKPGKAPKLLIYSASFLYSGVPSRFSGSGSGTDFTLTISSLQPEDFATYYCQQSYTTPPTFGQGTKVEIK
B2: in silico optimized variant of mAb2 (SL52R) (antibody, V domains shown)
VH: B1 VH
VL: B1 VL with S52R

Molecular target: vascular endothelial growth factor (Homo sapiens (assumed), UniProt P15692-4)
Assay: SPR

Binder | Kd | koff | kon
B1 | 1.11 nM | 0.000405 s⁻¹ | 3.66e-05 M⁻¹ s⁻¹
B2 | 1.24 nM | 0.000375 s⁻¹ | 3.03e-05 M⁻¹ s⁻¹
